Experimental data taken from ChEMBL document CHEMBL4177657, “Structure-activity relationships of 2-substituted phenyl-N-phenyl-2-oxoacetohydrazonoyl cyanides as novel antagonists of exchange proteins directly activated by cAMP (EPACs)” (Bioorg Med Chem Lett, 2017).

Organism: Homo sapiens
Experiment: Selectivity ratio of IC50 for recombinant human GST-fused EPAC2-B domain (283 to 1011 residues) expressed in Escherichia coli Rosetta (DE3) to IC50 for recombinant human GST-fused EPAC1 expressed in Escherichia coli Rosetta (DE3)

C[C@@H]1CCc2c(cc(Br)c(F)c2Br)N1C=O
Ratio IC50: 10
